The target in the experiment is T1, human recombinant choline acetyltransferase (rChAT) (Homo sapiens, UniProt P28329).
T1 construct: made in house; host or cells: E. coli BL21 Rosetta2
T1 sequence (P28329 1-630 isoform P28329-3): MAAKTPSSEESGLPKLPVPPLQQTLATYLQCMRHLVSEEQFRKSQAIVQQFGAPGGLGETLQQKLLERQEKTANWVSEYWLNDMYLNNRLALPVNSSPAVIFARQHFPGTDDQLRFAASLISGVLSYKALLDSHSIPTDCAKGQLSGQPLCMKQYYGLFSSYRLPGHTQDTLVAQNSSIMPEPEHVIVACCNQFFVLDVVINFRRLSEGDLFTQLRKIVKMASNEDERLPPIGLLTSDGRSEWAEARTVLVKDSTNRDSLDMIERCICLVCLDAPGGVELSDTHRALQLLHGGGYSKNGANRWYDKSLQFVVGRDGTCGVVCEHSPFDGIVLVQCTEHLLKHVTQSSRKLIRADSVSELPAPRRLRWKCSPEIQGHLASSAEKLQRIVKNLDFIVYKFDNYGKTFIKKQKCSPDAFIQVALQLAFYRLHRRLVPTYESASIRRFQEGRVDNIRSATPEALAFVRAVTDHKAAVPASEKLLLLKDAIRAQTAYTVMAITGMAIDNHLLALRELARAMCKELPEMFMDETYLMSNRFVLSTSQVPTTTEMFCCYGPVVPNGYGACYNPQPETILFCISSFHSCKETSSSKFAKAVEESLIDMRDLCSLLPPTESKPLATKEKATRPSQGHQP
The experiment in a line: Fluorometric in vitro ChAT activity assay (human rChAT, CPM read-out). It is filed as biochemical. The conditions noted are these: each peptide separately, no gelatin, fitted in 0–20 ng/mL (Aβ42) and 0–32 ng/mL (Aβ40) ranges; for EC50 for ChAT activation: ≥3 independent experiments. The procedure:
Recombinant ChAT was purified as described previously ([Kumar et al., 2016a], [2017]). Briefly, DYT media was inoculated with an O/N culture of E. coli BL21 Rosetta2 transformed with pProExHTa-ChAT (a gift from Dr. Brian Shilton, Department of Biochemistry, University of Western Ontario, London, ON, Canada). The bacteria were grown in shaking incubator at 37°C with 200 rpm until the optical density at 600 nm reached 0.5. After which, 0.5 mM IPTG was added and His6-ChAT was expressed for approximately 16 h at 18°C. Next, the cells were harvested and His6-ChAT was purified with “Ni-NTA fast start Kit” (Qiagen) following the manufacturer’s instructions. The elution buffer was exchanged to storage buffer [10 mM Tris pH 7.4, 500 mM NaCl, 10% (v/v) glycerol] using 30 kDa molecular weight cutoff Amicon Ultra concentrators (Merck Millipore). The purity and molecular weight of the protein were determined using SDS-PAGE electrophoresis. The total protein concentration was determined using DC Protein Assay (Bio-Rad). The purified protein was aliquoted and stored at −80°C.
ChAT activity was measured with our newly developed robust in-house fluorometric assay, using human rChAT protein. […]
Then, 50 μL of a cocktail-A [dilution buffer containing 10 μM ACoA (final concentration) and 15 μM CPM (final concentration)] was added to each well. Immediately after adding the cocktail-A, the changes in fluorescence were monitored kinetically at 479 nm emission wavelength after exciting at 390 nm wavelength, at 1- to 2-min intervals for 15–20 min using a microplate spectrophotometer reader (Infinite M1000, Tecan).
Each Aβ peptide dilution was run in triplicates. […] The kinetic rate of enzyme activity (as ΔRFU/min slope data) was calculated and processed using the GraphPad Prism 7 analysis software. The actual rate values as well as statistical analysis values (P-values) of ChAT activity at different Aβ concentrations or alone were calculated after fitting the curve with the linear regression function in the GraphPad Prism 7. […]

As to “Aβ40: amyloid-β peptide, recombinant, purchased from rPeptide (Cat no. A-1153-1)”, the “EC50 for ChAT activation” value was roughly 0.8 ng/mL. As for “Aβ42: amyloid-β peptide, recombinant, purchased from rPeptide (Cat no. A-1166-1)”, the “EC50 for ChAT activation” value is roughly 0.07 ng/mL. For the same substance, the “EC50 for ChAT activation (Figure 3)” value (mean ± SD of ≥3 independent experiments) is given as ~ 0.068 ng/ml.

Values taken from publication PMC6146036 (Frontiers in Molecular Neuroscience, 2018).
